System: sulfate-reducing bacteria (SRB)
Assay: SRB surviving 3 h treatment, serial dilution enumeration (NACE TMO 194-2004)
Type: cell-based
Conditions: very low concentrations of cinnamaldehyde
Source text: Following the treatment, an aliquot of each sample was serially diluted (10-fold dilutions) into culture media for SRB to enumerate the survivors according to NACE TMO 194-2004.

Q: For `O=CC=Cc1ccccc1` [Cinnamaldehyde, cinnamaldehyde], which “Effect of cinnamaldehyde on the ability of THPS to inhibit SRB growth” value is on record?
A: Its value is “improves the ability of THPS to inhibit the growth of sulfate reducing bacteria”.

Source: patent publication US20150038471A1, “PROCESS FOR PREVENTING OR MITIGATING BIOFOULING” (Baker Hughes Incorporated, priority 2010, published 2015)
